Molecules are shown by their SMILES. The list shows a part of the results, in another mix than the full data. Some structures show a salt or complex split into parts, the way the source records it. Activity calls are given as the source filed them. Calls come from the whole dose curve; as a rule, active = well fitted activation curve with a large enough effect; inconclusive = small, poorly fitted or top-dose-only effect; inactive = no such curve, though single readings can be large or run the other way.

This is an account of results in PubChem BioAssay AID485298 (National Center for Advancing Translational Sciences (NCATS), 2010).

A short description of the assay: qHTS Assay for Small Molecule Inhibitors of Mitochondrial Division or Activators of Mitochondrial Fusion. Note: % of control where 0% means no effect; nearly all actives have a fitted effect of over 45% in size. As to conditions: S. cerevisiae fusion-defective mutant growth rescue, CellTiterGlo 48 h; at 46.1 µM (top of the series). The source says:
NIH Chemical Genomics Center [NCGC] NIH Molecular Libraries Probe Production centers Network [MLPCN] MLPCN Grant: MH081279-01 Assay Submitter (PI): Jodi M. Nunnari NCGC Assay Overview: The budding yeast S. cerevisiae is a powerful system to study mitochondrial fusion. Unlike other organisms, yeast cells without functional mitochondrial DNA (mtDNA) can be propagated and studied as long as they maintain a mitochondrial compartment and are provided with a fermentable carbon source. When mitochondrial fusion is blocked in yeast, mitochondrial tubules rapidly fragment and division continues unopposed. Under conditions where fusion is compromised in mammalian cells, nearly identical changes in mitochondrial structure have been observed. Thus, these findings indicate that steady state mitochondrial structure in cells is a characteristic and specific indicator of fusion activity. Mounting evidence has pointed to a connection between mitochondrial dynamics and apoptosis in mammalian cells. These studies indicate that in mammalian cells mitochondrial dynamics are more integrated into cellular processes than in yeast cells and have evolved not only to distribute the organelle but also to aid in the regulation of cellular homeostasis. Mitochondrial fusion proteins attenuate apoptosis by inhibiting the release of cytochrome c from mitochondria, in part by controlling cristae structures. Thus, small molecules that inhibit mitochondrial […] may promote apoptosis and potentially act as novel chemotherapeutics and stimulation of apoptosis has become an attractive target of anti-cancer therapies. To identify inhibitors of mitochondrial division, we exploit the growth phenotypes of mitochondrial fusion-defective mutants. The temperature sensitive fusion alleles, such as fzo1-1 and mgm1-5, cause mitochondrial membranes to fragment in cells under non-permissive conditions and cells lose mtDNA, and are unable to grow in the presence of non-fermentable carbon source glycerol. Inhibiting mitochondrial division rescues growth. We have developed and optimized a luminescence cell viability assay in 1536 well format for the identification of inhibitors in the yeast mitochondrial fusion-defective assay.
The yeast glycerol stocks where kindly supplied by the laboratory of Dr. Jodi Nunnari, University of California, Davis. All yeast glycerol stock solutions were stored in single use aliquots at -80C. The CellTiterGlo luminescence reagent, containing luciferase and luciferin, were purchased from Promega, and the reagents were stored according to manufacturer's instructions. The Buffer components for the YPEG yeast growth medium were purchased from Sigma-Aldrich (St. Louis, MO). YPEG growth medium: 1% (w/v) yeast extract, 2% (w/v) Bacto-peptone, 3% Ethanol, 3% glycerol, 0.4mM Tryptophan, 0.36mM Adenine. qHTS Assay Protocol: 1.#Dispense 2.5 ul yeast growth medium per 1536 well plate. 2.#Transfer 23 nl per well of compound to plate. 3.#Dispense 2.5 ul yeast solution at appropriate seeding density per well. 4.#Incubate for 48 hours at 37C. 5.#Dispense 5 ul of CellTiterGlow solution per well. 6.#Incubate at ambient for 10 minutes. 7.#Read using bio-luminescence protocol on Viewlux.
As for `CN1CCC(Nc2ccc(F)c(Cl)c2)CC1`, the growth rescue (activation) is inactive: -6.32%. For `CCOc1ncccc1C(=O)NCC1(N2CCOCC2)CCCCC1`, the growth rescue (activation) is inactive: 1.04%. For `O=C(O)C1(Nc2ccccc2)CCN(Cc2ccccc2)CC1` the value was inactive: 7.9%; for `CC(C)(C)OC(=O)N1CCC(Nc2ccccc2)CC1`, inactive: -1.62%. For the compound `CCC(CO)(C(=O)OC1CN2CCC1CC2)c1ccccc1` (stereo unspecified), the growth rescue (activation) is inactive: 0.735%.

`COc1cccc(C(=O)N(c2cc(C)cc(C)c2)C2CCN(C(=O)OC(C)(C)C)CC2)c1`: the growth rescue (activation) is inactive: 2.66%. For `COc1cc(OC)cc(C(=O)NCC2(N3CCOCC3)CCCCC2)c1` the value was inactive: -0.478%; for `CCCOc1ccc(C)cc1CN(CCCl)CCCl`, inactive: 3.55%; for `CN1CCC(Nc2ccc(Cl)cc2)CC1`, inactive: -0.601%. For `COc1cc(OC)cc(C(=O)NCC2(N3CCCCC3)CCCCC2)c1` the value was inactive: 19.9%. For `Fc1ccccc1NC1CCN(Cc2ccccc2)CC1` the value was inactive: 1.5%; for `Cc1ccc(C(=O)NCC2(N3CCCCC3)CCCCC2)o1`, inactive: -2.67%. `CCN1CCC(Nc2cccc(F)c2)CC1`: the growth rescue (activation) is inactive: -2.99%. For `CN(C)c1ccc(C(=O)NCC2(N3CCCCC3)CCCCC2)cc1` the value was inactive: -12.9%. Under `O=C(NCC1(N2CCCCC2)CCCCC1)c1ccco1` stands inactive: -2.61%. For `CC(C)(C)OC(=O)N1CCC(N(C(=O)c2ccccc2)c2ccc(Cl)cc2)CC1` the value was inactive: -15.3%. As to `N#Cc1ccc(C(=O)NCC2(N3CCCCC3)CCCCC2)cc1`, the growth rescue (activation) was inactive: 1.4%.

With `CCOC(=O)C(CC)C1=NC(C)(C)Cc2ccccc21.O=[N+]([O-])c1cc([N+](=O)[O-])c(O)c([N+](=O)[O-])c1` (stereo unspecified), the growth rescue (activation) is inactive: 3.68%.

Turning to `CCCN1CCC(Nc2cc(OC)cc(OC)c2)CC1`, the growth rescue (activation) is inactive: -1.63%.

Turning to `c1ccc(CN2CCC(Nc3ccccc3)CC2)cc1`, the growth rescue (activation) was inactive: 0.674%. For `CN(C)C1(CNC(=O)c2cccc(C#N)c2)CCCCC1` the value was inactive: 2.53%; for `O=C(NCC1(N2CCOCC2)CCCCC1)c1cc(Br)ccc1Cl`, inactive: 4.96%. Under `COc1ccc(C(=O)NCC2(N3CCOCC3)CCCCC2)cc1OC` stands inactive: -32.4%; under `N/C(=N\O)c1c(N)no[n+]1[O-]`, inactive: -1.95%; under `CCOC(=O)N1CCC(Nc2ccc(C)cc2)CC1`, inactive: -0.774%. Under `O=C(O)c1cccc(Nc2c([N+](=O)[O-])cc([N+](=O)[O-])cc2[N+](=O)[O-])c1` stands inactive: 3.71%; under `CCc1cc(C(=O)NCC2(N3CCCCC3)CCCCC2)sc1C`, inactive: -5.96%. As to `O=C(OC1CN2CCC1CC2)C1c2ccccc2C=Cc2ccccc21` (stereo unspecified), the growth rescue (activation) was inactive: -6.84%. For `CN(C)c1cccc(C(=O)NCC2(N3CCCCC3)CCCCC2)c1` the value was inactive: 2.48%; for `O=[N+]([O-])c1cc([N+](=O)[O-])c(OC2CCCCC2O)c([N+](=O)[O-])c1` (stereo unspecified), inactive: -0.543%; for `COc1ccc(CN(CCCl)CCCl)cc1Cl`, inactive: 12.3%. For `CC(C)c1ccc(NC2CCN(C(=O)OC(C)(C)C)CC2)cc1` the value was inactive: 2.99%; for `COc1cc(OC)c(C(=O)NCC2(N(C)C)CCCCC2)cc1OC`, inactive: -6.07%; for `O=C(NCC1(N2CCCCC2)CCCCC1)c1cncc(Br)c1`, inactive: -5.94%.

With `COc1ccc2c(c1O)-c1c(O)c(OC)cc3c1[C@H](C2)[N+](C)(C)CC3.O=[N+]([O-])c1cc([N+](=O)[O-])c([O-])c([N+](=O)[O-])c1[O-]`, the growth rescue (activation) is inactive: -1.1%. Under `O=C(OC1CN2CCC1CC2)c1ccc([N+](=O)[O-])cc1` (stereo unspecified) stands inactive: -2.84%; under `CCCOc1ccc(C(=O)NCC2(N(C)C)CCCCC2)cc1OC`, inactive: -10.4%; under `O=C(NCC1(N2CCCCC2)CCCCC1)c1ccc(OC(F)F)cc1`, inactive: -3.56%.

Consider `O=C(NCC1(N2CCCCC2)CCCCC1)c1cccc([N+](=O)[O-])c1`, for which the growth rescue (activation) was inactive: 8.89%. With `CSc1ccc(C(=O)NCC2(N3CCOCC3)CCCCC2)cc1`, the growth rescue (activation) is inactive: -6.7%.

For `N#CC1(Nc2ccccc2)CCN(CCc2ccccc2)CC1`, the growth rescue (activation) is inactive: -0.847%.

Regarding `CCN1CCC(Nc2ccc(Cl)cc2)CC1`, the growth rescue (activation) was inactive: -1.46%. With `O=C(NCC1(N2CCCCC2)CCCCC1)c1cccc(C(F)(F)F)c1`, the growth rescue (activation) was inactive: -10%. For `O=[N+]([O-])c1cc([N+](=O)[O-])c(NCC2CCS(=O)(=O)C2)c([N+](=O)[O-])c1` (stereo unspecified) the value was inactive: -8.35%. For `COc1ccc(NC2CCN(C(=O)OC(C)(C)C)CC2)cc1` the value was inactive: 10.3%; for `CC(C)c1ccc(C(=O)NCC2(N3CCOCC3)CCCCC2)cc1`, inactive: 4.24%; for `CN1CCN(CCOC(=O)C(O)(c2ccccc2)c2ccccc2)CC1`, inactive: -5.13%. For `O=C(NCC1(N2CCOCC2)CCCCC1)c1cc(=O)[nH]c2ccccc12` the value was inactive: 1.37%.

Take `COc1cc(C(=O)NCC2(N3CCCCC3)CCCCC2)ccc1OC(F)F`: the growth rescue (activation) is inactive: -2.12%. For `CCOc1ccc(C)cc1CN(CCCl)CCCl` the value was inactive: 3.62%. Under `CCOC(=O)N1CCC(Nc2ccc(F)cc2)CC1` stands inactive: 1.92%; under `COc1ccc(NC2CCN(CCc3ccccc3)CC2)c(OC)c1`, inactive: -1.68%; under `CCCCOc1ccc(C(=O)NCC2(N3CCOCC3)CCCCC2)cc1`, inactive: 8.49%.

As to `O=C(NCC1(N2CCCCC2)CCCCC1)c1ccc(F)cc1`, the growth rescue (activation) was inactive: -0.265%. In the case of `Cc1ccc(OCC(C)C)c(CN(CCCl)CCCl)c1`, the growth rescue (activation) is inactive: -1.58%. Turning to `CCOC(=O)N1CCC(Nc2cccc(C)c2)CC1`, the growth rescue (activation) is inactive: 0.475%. Under `COc1cc(C(=O)NCC2(N(C)C)CCCCC2)ccc1OC(F)F` stands inactive: -6.28%. Under `O=C(NCC1(N2CCCCC2)CCCCC1)c1cccs1` stands inactive: -1.23%; under `O=C(NCC1(N2CCCCC2)CCCCC1)c1ccc(=O)[nH]c1`, inactive: -1.93%.

Turning to `COc1ccc(C(=O)NCC2(N3CCCCC3)CCCCC2)c(OC)c1OC`, the growth rescue (activation) was inactive: -1.68%.

For `CC(C)(C)OC(=O)N1CCC(N(C(=O)c2ccccc2)c2ccc(F)cc2)CC1`, the growth rescue (activation) is inactive: -1.89%.

Take `COc1ccc(C(=O)NCC2(N3CCCCC3)CCCCC2)cc1`: the growth rescue (activation) was inactive: -8.38%.

Turning to `CSc1ccccc1C(=O)NCC1(N2CCCCC2)CCCCC1`, the growth rescue (activation) was inactive: -1.66%.

For `O=C(NCC1(N2CCOCC2)CCCCC1)c1cc2ccccc2o1`, the growth rescue (activation) is inactive: 0.198%.

For `Cc1cc(C)cc(N(C(=O)c2ccccc2)C2CCN(C(=O)OC(C)(C)C)CC2)c1`, the growth rescue (activation) was inactive: -10.8%.

As for `O=C(NCC1(N2CCCCC2)CCCCC1)c1ccc(Cl)nc1`, the growth rescue (activation) is inactive: -0.481%. Under `CCOC(=O)N1CCC(Nc2ccc(OC)cc2)CC1` stands inactive: -3.86%; under `COc1ccc(Cl)cc1C(=O)NCC1(N2CCOCC2)CCCCC1`, inactive: 11.5%.

Regarding `O=C(NCC1(N2CCCCC2)CCCCC1)c1ccc(Cl)s1`, the growth rescue (activation) is inactive: 0.344%. For `N#CC1(Nc2ccccc2)CCN(Cc2ccccc2)CC1` the value was inactive: -1.21%; for `O=C(OC1CN2CCC1CC2)C1c2ccccc2Oc2ccccc21` (stereo unspecified), inactive: -8.56%.
